Hits are enriched below; roughly 3.7% of the tested compounds scored in any of these assays.
p53 reactivator – restores transcriptional activity of mutant p53. H1299 p53-A138V BP100-luciferase reporter, luminescence, 24 h. Potency, µM (highest dose often 92.2 µM), actives largely listed as activators. hit rate 0.063% among 320,000. AID 504706; also: nearly all actives have a fitted effect of over 45% in size
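p53-null H1299 cells stably carrying temperature-sensitive p53-A138V and a BP100-luciferase reporter were pinned with compounds (4-point, 1:5 series) and held 24 hrs at 37 deg C. Luminescence was read 10 min after detection reagent.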
Nrf2 ARE act – Nrf2 pathway activation; hit rate 0.31% among 410,000; Potency, µM (highest dose often 46.1 µM), usual class: activators; AREc32 ARE-luciferase reporter (MCF7-derived line), luminescence, 24 h; also: nearly all actives have a fitted effect of over 65% in size
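Quantitative high-throughput format: AREc32 reporter cells, 1000 per well, received compound by pin transfer and were incubated 24 hr at 37 deg C, 5% CO2, before Steady-Glo luminescence detection.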
miR-21 reporter – miR-21 reporter, rising signal; HeLa miR-21 FLuc reporter, luciferase, 48 h; Potency, µM (titrated, usually from 38.3 µM); AID 2288; 340,000 tested, under 10 active; active = well fitted rising curve with a large enough effect; inconclusive = small, poorly fitted or top-dose-only effect; inactive = no such curve, though single readings can be large or run the other way;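 further: miR-21 action dims this reporter so a rising signal means less miR-21 action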
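Luminescence from a firefly luciferase reporter carrying a miR-21 binding site downstream, stably expressed under a CMV promoter in HeLa cells that make miR-21 endogenously, reports miRNA modulation after 48 h compound exposure up to approximately 40uM final.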
ClpP mod – qHTS Assay for Activators of ClpP; ATP-dependent Clp protease proteolytic subunit (Bacillus subtilis (strain 168)), P80244; purified B. subtilis ClpP, FRET peptide cleavage, 20 min; Potency, µM (series often up to 57.5 µM); hit rate 1.9% among 340,000; AID 651965, 2013; active = well fitted falling curve with a large enough effect; inconclusive = small, poorly fitted or top-dose-only effect; inactive = no such curve, though single readings can be large or run the other way; also: the source files actives as falling curves though it sought activators and does not explain the sign; nearly all actives have a fitted effect of over 65% in size
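ClpP 10 microg/mL final, pH 8 Tris/KCl buffer with BSA, glycerol, Tween-20; compound pinned in; FRET-FV substrate; RT 20 min; Ex320/Em430; ΔFRET vs ADEP 5.8 microM, DMSO, no enzyme.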
A549 tox – counter-screen for Nrf2 inhibitors: cytotoxicity in A549 cells | hit rate 0.16% among 390,000 | A549 ARE-Fluc cells, CellTiter-Fluor viability, 18-24 h | Potency, µM (top dose mostly 46 µM), most hits filed as inhibitors
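Cytotoxicity counterscreen: CellTiter-Fluor fluorescence was measured in A549 ARE_Fluc cells after 18-24 h of compound exposure in a concentration series. The subsequent BugLite luminescent read reports ARE-luciferase activity.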
Nrf2 block – blocks Nrf2 signaling. A549 ARE-Fluc reporter, luciferase luminescence, 18-24 h. Potency, µM (series often up to 46 µM), actives largely listed as inhibitors. hit rate 2.1% among 360,000; also: nearly all actives have a fitted effect of over 60% in size
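Concentration-response testing used A549 ARE_Fluc cells at 5000 cells/well. Following an 18-24 h compound incubation, viability was read by fluorescence (Ex 405/Em 525) and luciferase output by luminescence.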
Each line names hits and unclear results; the compound was inactive in the other large screens. Unless noted, calls follow the shape of the dose curve; as a rule, active = well fitted curve in the direction sought with a large enough effect; inconclusive = small, poorly fitted or top-dose-only effect, or another doubt; inactive = no such curve, though single readings can be large; an effect the other way counts as inactive or inconclusive.

Sequences of proteins named here, by UniProt entry; tags and fusion partners are left off.
ATP-dependent Clp protease proteolytic subunit (Bacillus subtilis (strain 168)), P80244, UniProt P80244, whole entry, looked up: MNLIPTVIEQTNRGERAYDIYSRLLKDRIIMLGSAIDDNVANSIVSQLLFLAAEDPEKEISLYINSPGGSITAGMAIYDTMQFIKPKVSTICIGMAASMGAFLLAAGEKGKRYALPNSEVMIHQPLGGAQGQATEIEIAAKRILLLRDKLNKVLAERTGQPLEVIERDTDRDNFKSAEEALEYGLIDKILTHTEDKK

COc1ccc(C(=O)/C=C/C(=O)N(CC(=O)NC2CCCCC2)CC2CCCO2)c(O)c1 (stereo not given)	Nrf2 ARE act inconclusive, miR-21 reporter inconclusive, A549 tox inconclusive, Nrf2 block 20.6µM
COc1ccc(C(=O)/C=C/C(=O)N(CC(=O)NC2CCCCC2)Cc2ccccc2)c(O)c1	A549 tox inconclusive (no result: ClpP mod)
Cc1cc2c(s1)c1cnn(Cc3ccc(F)c(Cl)c3)c(=O)c1n2C	none (no result: p53 reactivator, Nrf2 ARE act, miR-21 reporter, ClpP mod)
O=C1C[C@@H](c2ccccc2Cl)N1S(=O)(=O)c1ccccc1[N+](=O)[O-]	none (no result: p53 reactivator, Nrf2 ARE act, miR-21 reporter, ClpP mod)
COCCN(Cc1cc2c(C)cc(C)cc2nc1Cl)C(=O)c1ccccc1F	A549 tox inconclusive, Nrf2 block 18.4µM
COc1cccc(-c2c(C#N)c(N)nc3c2c(C)nn3-c2ccccc2)c1O	A549 tox inconclusive, Nrf2 block 25.9µM
COc1cc(C(=O)Nc2ccc(Oc3ncnc4sc(-c5ccccc5)cc34)cc2)cc(OC)c1OC	none
COc1ccccc1C(=O)Nc1ccc(Oc2ncnc3sc(-c4ccccc4)cc23)cc1	p53 reactivator inconclusive, ClpP mod 10µM (no result: A549 tox)
Oc1c(C(c2ccccc2)N2CCN(Cc3ccccc3)CC2)sc2nc(-c3ccco3)nn12 (stereo not given)	none (no result: p53 reactivator, Nrf2 block)
Cc1ccc(C)c(-n2ccnc2SCC(=O)O)c1	none
Cc1cc(C)cc(-n2ccnc2SCC(=O)O)c1	ClpP mod 28.2µM
Cc1ccc(C(=O)CSc2nccn2-c2ccccc2)cc1	ClpP mod 28.2µM
Cc1ccc(Cl)cc1N1CCN(C(=O)c2ccc3c(c2)N(Cc2ccccc2)CCS3)CC1	ClpP mod inconclusive (no result: p53 reactivator)
Cc1cc(=O)oc2c(CN(CC(C)C)CC(C)C)c(O)ccc12	none
Cc1c(O)ccc2c3c(c(=O)oc12)CCCC3	ClpP mod 25.1µM
CC1CCCN(Cc2c(O)ccc3c4c(c(=O)oc23)CCCC4)C1 (stereo not given)	none
Cc1c(O)ccc2c3c(c(=O)oc12)CCC(C)C3 (stereo not given)	ClpP mod 25.1µM (no result: Nrf2 block)
CC(C)CN(Cc1c(O)ccc2c3c(c(=O)oc12)CCC3)CC(C)C	ClpP mod 12.6µM
O=C(NCc1ccco1)c1ccc(Cn2c(SCc3ccccc3)nc3cccnc32)cc1	Nrf2 block inconclusive (no result: p53 reactivator)
Cc1c(C(=O)OC2CCCCC2)[nH]c2c1C(=O)CC(c1ccc(C(C)(C)C)cc1)C2 (stereo not given)	none (no result: p53 reactivator)
O=C(N/N=C\C=C\c1ccco1)c1cncc(Br)c1	Nrf2 ARE act 12.6µM (no result: ClpP mod)
O=C(CN1CCN(Cc2ccccc2)CC1)N/N=C\C=C/c1ccco1	Nrf2 ARE act 6.31µM, Nrf2 block inconclusive
O=C(Cc1cccs1)N/N=C/C=C/c1ccco1	Nrf2 ARE act 12.6µM
CC(=O)c1ccc(-n2nnnc2SCC(=O)Nc2cccc(NC(=O)c3ccco3)c2)cc1	Nrf2 block 23.1µM
O=C(Nc1c(C(=O)c2ccc(F)cc2)oc2ccccc12)c1cc(-c2ccccc2)on1	none (no result: p53 reactivator)
CNC(=O)C1CCC(Cn2c(=O)c3sccc3n(CC(=O)Nc3ccc(C)c(C)c3)c2=O)CC1 (stereo not given)	Nrf2 block 23.1µM (no result: p53 reactivator)
CCc1ccccc1NC(=O)CN1CCN(C(=O)CNC(=O)Cc2cccc3ccccc23)CC1	Nrf2 block 14.6µM (no result: miR-21 reporter)
CC(=O)N1CCN(CC(=O)Nc2ccccc2Sc2ccc(Cl)cc2)CC1	none
N#Cc1ccc(CN2CCN(C(=O)CNC(=O)Cc3cccc4ccccc34)CC2)cc1	Nrf2 block 5.8µM (no result: miR-21 reporter, ClpP mod)
CCc1ccccc1NC(=O)CN1CCN(C(=O)C(C)NC(=O)c2ccc(Cl)cc2)CC1 (stereo not given)	ClpP mod 15.8µM, Nrf2 block inconclusive (no result: miR-21 reporter)
COc1cccc(Nc2nc3cc(Cl)c(Cl)cc3nc2-n2nc(C)cc2C)c1	none (no result: p53 reactivator)
CCc1ccc(OCC(=O)Nc2ccc(-c3cc4ccccc4oc3=O)c(OC)c2)cc1	ClpP mod 35.5µM
COc1ccc(C(=O)Nc2cccc(-c3nc4ncccc4o3)c2C)cc1OC	A549 tox inconclusive, Nrf2 block 18.4µM
COc1cc(NC(=O)c2cc(Cl)ccc2Cl)ccc1-c1cc2ccccc2oc1=O	ClpP mod 28.2µM
COc1ccc(C(=O)Nc2ccc(-c3cc4ccccc4oc3=O)c(C)c2)cc1OC	Nrf2 block 13µM (no result: p53 reactivator)
COc1cc(NC(=O)c2cccnc2)ccc1-c1cc2ccccc2oc1=O	none (no result: Nrf2 ARE act, ClpP mod, A549 tox, Nrf2 block)
O=C(NC1CCCc2ccccc21)c1cnn2c1NC(=C1CC1)C=C2C(F)F (stereo not given)	none (no result: p53 reactivator, Nrf2 ARE act, miR-21 reporter, A549 tox, Nrf2 block)
Cc1ccc(S(=O)(=O)N2CCN(C(=O)/C=C/c3ccccc3)CC2)cc1C	none (no result: miR-21 reporter)
Cc1ccc(-c2nc(CS(=O)CC(=O)N3CCN(c4cccc(Cl)c4)CC3)c(C)o2)cc1 (stereo not given)	miR-21 reporter inconclusive, A549 tox inconclusive, Nrf2 block 23.1µM (no result: p53 reactivator)
CC(=O)Nc1ccc(-c2nnc(SCC(=O)c3ccc([N+](=O)[O-])cc3)o2)cc1	none (no result: p53 reactivator)
CCCCNC(=O)c1ccc(N2CCOCC2)c(NS(=O)(=O)c2ccc(OC)cc2)c1	Nrf2 block inconclusive
CCNC(=O)Nc1cc(S(=O)(=O)Nc2ccc(OC)cc2)ccc1N1CCOCC1	Nrf2 block 4.11µM (no result: miR-21 reporter)
Nc1cc(S(=O)(=O)Nc2ccccc2Cl)ccc1N1CCOCC1	Nrf2 block inconclusive
Nc1cc(S(=O)(=O)Nc2ccc(Cl)cc2)ccc1N1CCOCC1	Nrf2 block 16.4µM (no result: ClpP mod)
CCOc1ccc(CCNC(=O)CN2C(=O)COc3ccc(S(=O)(=O)N(CC)CC)cc32)cc1	Nrf2 block 23.1µM (no result: p53 reactivator)
COc1ccccc1OCC(=O)N1CCC2(CC1)CC(=O)c1ccccc1O2	ClpP mod 22.4µM (no result: miR-21 reporter)
CCOC(=O)N1CCN(C(=O)COc2ccc3c(c2)C(=O)CC2(CCN(C(C)=O)CC2)O3)CC1	ClpP mod 15.8µM
CC(=O)N1CCC2(CC1)CC(=O)c1cc(OCC(=O)N3CCOCC3)ccc1O2	none
O=C1CC2(CCN(C(=O)COc3ccccc3F)CC2)Oc2ccccc21	ClpP mod inconclusive (no result: miR-21 reporter)
CC(=O)Nc1c(C)nn(-c2ccccc2)c1N1CCC(C(=O)Nc2ccc(Cl)cc2C)CC1	none (no result: p53 reactivator, Nrf2 block)
COCCNC(=O)[C@@H]1CSC2c3ccccc3C(=O)N21 (stereo not given in full)	p53 reactivator inconclusive, ClpP mod 31.6µM
CCCCNC(=O)[C@@H]1CSC2c3ccccc3C(=O)N21 (stereo not given in full)	none (no result: ClpP mod)
COC(=O)C1[C@H]2SC(C)(C)C(C(=O)OC)N2C(=O)N1Cc1ccccc1 (stereo not given in full)	none (no result: p53 reactivator, Nrf2 ARE act, miR-21 reporter, A549 tox, Nrf2 block)

Screening results as filed in PubChem BioAssay.
